# Permeability data for macrocyclic peptides

Data: CycPeptMPDB; original report Townsend et al. 2020, doi:10.26434/chemrxiv.13335941.v1.

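Lipid, pH, incubation time, direction and concentration are not recorded in the data file. The list need not hold all peptides of the study. Peptides that the database sets to -10, its floor, are left out.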

PAMPA is the parallel artificial membrane permeability assay, which has no cells and reads passive diffusion. Permeability is in 10^-6 cm/s, converted from the database's log10 values; higher is more permeable.

SMILES,PAMPA (10^-6 cm/s)
O=C1CN(Cc2ccccc2)C(=O)[C@@H]2CCCN2C(=O)CN(Cc2ccccc2)C(=O)CN(Cc2ccccc2)C(=O)C[C@H](Cc2ccccc2)NC(=O)[C@H](Cc2ccccc2)N1,0.68
CC(C)C[C@H]1NC(=O)[C@@H]2CCCN2C(=O)C[C@H](Cc2ccccc2)NC(=O)CN(Cc2ccccc2)C(=O)[C@@H](C)NC(=O)[C@H](Cc2ccccc2)NC1=O,0.47
CC(C)C[C@@H]1C(=O)N(Cc2ccccc2)CC(=O)N2CCC[C@H]2C(=O)N(Cc2ccccc2)CC(=O)N[C@@H](Cc2ccccc2)C(=O)N2CCC[C@@H]2C(=O)N[C@H](C)C(=O)N1C,0.59
CC(C)C[C@@H]1C(=O)N(Cc2ccccc2)CC(=O)N2CCC[C@@H]2C(=O)N(Cc2ccccc2)CC(=O)N[C@@H](Cc2ccccc2)C(=O)N[C@@H](Cc2ccccc2)CC(=O)N1C,3.5
CC(C)C[C@H]1C(=O)N2CCC[C@@H]2C(=O)N(C)[C@@H](CC(C)C)C(=O)N[C@@H](Cc2ccccc2)C(=O)N2CCC[C@@H]2C(=O)N[C@@H](C)C(=O)N(Cc2ccccc2)CC(=O)N1C,8.5
CC(C)C[C@H]1C(=O)N(Cc2ccccc2)CC(=O)N2CCC[C@@H]2C(=O)N(Cc2ccccc2)CC(=O)N[C@@H](Cc2ccccc2)C(=O)N2CCC[C@@H]2C(=O)N[C@H](C)C(=O)N1C,0.11
CC(C)C[C@@H]1NC(=O)[C@@H](C)NC(=O)[C@H](Cc2ccccc2)NC(=O)CN(Cc2ccccc2)C(=O)[C@H]2CCCN2C(=O)C[C@H](Cc2ccccc2)NC1=O,1.6
CCCN1CC(=O)N(Cc2ccccc2)CC(=O)N(Cc2ccccc2)CC(=O)N2CCC[C@@H]2C(=O)N(C)[C@@H](CC(C)C)C(=O)N[C@@H](Cc2ccccc2)C(=O)N2CCC[C@H]2C1=O,0.26
CC(C)C[C@H]1NC(=O)[C@H]2CCCN2C(=O)C[C@H](Cc2ccccc2)NC(=O)CN(Cc2ccccc2)C(=O)[C@@H](C)NC(=O)[C@H]2CCCN2C(=O)[C@H](Cc2ccccc2)NC1=O,1.3
CCCN1CC(=O)N(C)[C@H](CC(C)C)C(=O)N(Cc2ccccc2)CC(=O)N2CCC[C@H]2C(=O)N[C@H](CC(C)C)C(=O)N[C@@H](Cc2ccccc2)C1=O,0.59
CC(C)C[C@@H]1C(=O)N(Cc2ccccc2)CC(=O)N2CCC[C@@H]2C(=O)N[C@H](CC(C)C)C(=O)N[C@@H](Cc2ccccc2)C(=O)N[C@@H](Cc2ccccc2)CC(=O)N1C,2.3
C[C@@H]1C(=O)N(Cc2ccccc2)CC(=O)N[C@@H](Cc2ccccc2)CC(=O)N2CCC[C@@H]2C(=O)N(Cc2ccccc2)CC(=O)N[C@@H](Cc2ccccc2)C(=O)N2CCC[C@@H]2C(=O)N1C,0.016
CCCN1CC(=O)N[C@H](CC(C)C)C(=O)N(C)[C@@H](CC(C)C)C(=O)N2CCC[C@H]2C(=O)N(C)[C@H](CC(C)C)C(=O)N[C@@H](Cc2ccccc2)C1=O,12
CC(C)C[C@@H]1C(=O)N(C)[C@@H](CC(C)C)C(=O)N2CCC[C@H]2C(=O)N[C@H](CC(C)C)C(=O)N[C@@H](Cc2ccccc2)C(=O)N[C@@H](Cc2ccccc2)CC(=O)N1C,6.2
CCCN1CC(=O)N[C@H](CC(C)C)C(=O)N[C@@H](Cc2ccccc2)CC(=O)N2CCC[C@@H]2C(=O)N(Cc2ccccc2)CC(=O)N[C@@H](Cc2ccccc2)C(=O)N2CCC[C@@H]2C1=O,0.26
CC(C)C[C@H]1C(=O)N[C@@H](Cc2ccccc2)C(=O)N[C@H](C)C(=O)N(Cc2ccccc2)CC(=O)N[C@@H](Cc2ccccc2)CC(=O)N2CCC[C@@H]2C(=O)N1C,2.3

Repeated from above, the 2 entries with the highest PAMPA:

SMILES,PAMPA (10^-6 cm/s)
CCCN1CC(=O)N[C@H](CC(C)C)C(=O)N(C)[C@@H](CC(C)C)C(=O)N2CCC[C@H]2C(=O)N(C)[C@H](CC(C)C)C(=O)N[C@@H](Cc2ccccc2)C1=O,12
CC(C)C[C@H]1C(=O)N2CCC[C@@H]2C(=O)N(C)[C@@H](CC(C)C)C(=O)N[C@@H](Cc2ccccc2)C(=O)N2CCC[C@@H]2C(=O)N[C@@H](C)C(=O)N(Cc2ccccc2)CC(=O)N1C,8.5